In publication PMC8754651:

Target: human TFIIH p62 PH domain (PH-D) (residues 1–108) (human) (UniProt P32780)
Assay: NMR titration; unlabeled RPB6 (1−127) added to 50 μM 15N-labeled p62 PH-D, molar ratios 1:0 to 1:2.50; 1H,15N-HSQC; 20 mM potassium phosphate (pH 6.8), 25 mM NaCl, 5 mM deuterated DTT, 10% D2O, 32°C

Substance: human RPB6 (residues 1–127), full-length (from UniProt P61218 1-127) (natural protein)
- stoichiometry N: 1
